Measurements: PMC7689490, “Designed CXCR4 mimic acts as a soluble chemokine receptor that blocks atherogenic inflammation by agonist-specific targeting” (Nature Communications, 2020)
Read-outs that look alike come from different tables or passages of the source. Values belong to the molecule of their own block, whether it stands above or below them.

Chains of the proteins cited; added tags and fusions are not shown. Residues count along the entry.
UniProt P48061, 22-89 limits assumed: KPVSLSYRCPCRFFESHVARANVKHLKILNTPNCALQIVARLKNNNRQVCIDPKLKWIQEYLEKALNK

Key:
Format in all cases: binding
CXCL12 [1] = target: T1, CXCL12 (Homo sapiens, UniProt P48061); test: Fluorescence spectroscopic titration of Fluos-labeled ectodomain peptides with CXCL12
T1 construct: purchased Peprotech

MIF = target: T2, MIF (Homo sapiens, UniProt P14174); test: Dot blot, TAMRA-msR4M-L1 on spotted human MIF (incl. competition with MIF[54–80])
T2 construct: made in house; host or cells: E. coli BL21/DE3 (pET11b)
T2 sequence (P14174 2-115): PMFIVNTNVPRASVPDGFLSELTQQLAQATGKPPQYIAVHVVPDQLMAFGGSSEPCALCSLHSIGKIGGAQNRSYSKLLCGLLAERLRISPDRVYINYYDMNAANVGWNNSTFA
Procedure: (§1) Non-specific binding was blocked with Tris-buffered saline (TBS), pH 7.4, containing 0.1% Tween-20 (TBS-T) and 1% BSA. […] Fluorescence intensities were measured at 600 nm using an Odyssey® Fc imager (LICOR Biosciences, Bad Homburg, Germany). The total intensity of each spot was automatically corrected by the individual background signal.

CXCL12 [2] = target: T1, CXCL12; test: Dot blot, TAMRA-msR4M-L1 on spotted human CXCL12
Procedure: as §1

[3] = fluorescence spectroscopy, Fluos-labeled peptide 5 nM titrated with CXCL12, mean ± SD of 3, read-out: Fluos (TAMRA)-ECD/CXCL12 (app. KD)

Kd (CXCL12 [1]; [3]): 84.6 ± 42.1 nM
Compound: CC[C@H](C)[C@@H]1NC(=O)[C@H](Cc2ccc(O)cc2)NC(=O)[C@H](CCCNC(=N)N)NC(=O)[C@H](CC(=O)O)NC(=O)CCCCCCCCCCCNC(=O)CCCCCNC(=O)[C@H](CCCCN)NC(=O)[C@@H](NC(=O)[C@H](CC(C)C)NC(=O)[C@H](Cc2ccccc2)NC(=O)[C@H](CC(N)=O)NC(=O)CNC(=O)[C@H](Cc2ccccc2)NC(=O)[C@H](Cc2ccc(O)cc2)NC(=O)[C@H](Cc2c[nH]c3ccccc23)NC(=O)[C@H](CC(N)=O)NC(=O)[C@H](C)NC(=O)[C@@H](NC(=O)[C@H](C)NC(=O)[C@@H](N)CC(=O)O)C(C)C)CSSC[C@@H](C(=O)N[C@@H](CC(=O)O)C(=O)N[C@@H](CCCNC(=N)N)C(=O)N[C@@H](Cc2ccccc2)C(=O)N[C@@H](Cc2ccc(O)cc2)C(=O)N2CCC[C@H]2C(=O)N[C@@H](CC(N)=O)C(=O)N[C@@H](CC(=O)O)C(=O)N[C@@H](CC(C)C)C(=O)N[C@@H](Cc2c[nH]c3ccccc23)C(=O)N[C@H](C(N)=O)C(C)C)NC1=O [msR4M-L1ox]

Compound: CC[C@H](C)[C@H](NC(=O)[C@H](Cc1ccc(O)cc1)NC(=O)[C@H](CCCNC(=N)N)NC(=O)[C@H](CC(=O)O)NC(=O)CCCCCCCCCCCNC(=O)COCCOCCNC(=O)[C@H](CCCCN)NC(=O)[C@H](CS)NC(=O)[C@H](CC(C)C)NC(=O)[C@H](Cc1ccccc1)NC(=O)[C@H](CC(N)=O)NC(=O)CNC(=O)[C@H](Cc1ccccc1)NC(=O)[C@H](Cc1ccc(O)cc1)NC(=O)[C@H](Cc1c[nH]c2ccccc12)NC(=O)[C@H](CC(N)=O)NC(=O)[C@H](C)NC(=O)[C@@H](NC(=O)[C@H](C)NC(=O)[C@@H](N)CC(=O)O)C(C)C)C(=O)N[C@@H](CS)C(=O)N[C@@H](CC(=O)O)C(=O)N[C@@H](CCCNC(=N)N)C(=O)N[C@@H](Cc1ccccc1)C(=O)N[C@@H](Cc1ccc(O)cc1)C(=O)N1CCC[C@H]1C(=O)N[C@@H](CC(N)=O)C(=O)N[C@@H](CC(=O)O)C(=O)N[C@@H](CC(C)C)C(=O)N[C@@H](Cc1c[nH]c2ccccc12)C(=O)N[C@H](C(N)=O)C(C)C [msR4M-L2]
Kd (CXCL12 [1]; Fluos-labeled peptide titrated with CXCL12, emission at 522 nm, 1st curve, read-out: App. Kd, 1st curve): > 6340 nM
Kd (CXCL12 [1]; Fluos-labeled peptide titrated with CXCL12, emission at 522 nm, 2nd curve, read-out: App. Kd, 2nd curve): > 6340 nM
Kd (CXCL12 [1]; Fluos-labeled peptide titrated with CXCL12, emission at 522 nm, 3rd curve, read-out: App. Kd, 3rd curve): > 6340 nM

binding to immobilized CXCL12 by dot blot (CXCL12 [2]): no binding
Compound: CC[C@H](C)[C@H](NC(=O)[C@H](Cc1ccc(O)cc1)NC(=O)[C@H](CCCNC(=N)N)NC(=O)[C@H](CC(=O)O)NC(=O)CCCCCCCCCCCNC(=O)CCCCCNC(=O)[C@H](CCCCN)NC(=O)[C@H](CS)NC(=O)[C@H](CC(C)C)NC(=O)[C@H](Cc1ccccc1)NC(=O)[C@H](CC(N)=O)NC(=O)CNC(=O)[C@H](Cc1ccccc1)NC(=O)[C@H](Cc1ccc(O)cc1)NC(=O)[C@H](Cc1c[nH]c2ccccc12)NC(=O)[C@H](CC(N)=O)NC(=O)[C@H](C)NC(=O)[C@@H](NC(=O)[C@H](C)NC(=O)[C@H](CC(=O)O)NC(=O)c1ccc2c(c1)C(=O)OC21c2ccc(N(C)C)cc2Oc2cc(N(C)C)ccc21)C(C)C)C(=O)N[C@@H](CS)C(=O)N[C@@H](CC(=O)O)C(=O)N[C@@H](CCCNC(=N)N)C(=O)N[C@@H](Cc1ccccc1)C(=O)N[C@@H](Cc1ccc(O)cc1)C(=O)N1CCC[C@H]1C(=O)N[C@@H](CC(N)=O)C(=O)N[C@@H](CC(=O)O)C(=O)N[C@@H](CC(C)C)C(=O)N[C@@H](Cc1c[nH]c2ccccc12)C(=O)N[C@H](C(N)=O)C(C)C [TAMRA-msR4M-L1]
detection of immobilized MIF by dot blot (MIF): readily detected in a concentration-dependent manner

Kd (CXCL12 [1]; [3]): 54.8 ± 10.3 nM
Compound: CC[C@H](C)[C@@H]1NC(=O)[C@H](Cc2ccc(O)cc2)NC(=O)[C@H](CCCNC(=N)N)NC(=O)[C@H](CC(=O)O)NC(=O)CCCCCCCCCCCNC(=O)COCCOCCNC(=O)[C@H](CCCCN)NC(=O)[C@@H](NC(=O)[C@H](CC(C)C)NC(=O)[C@H](Cc2ccccc2)NC(=O)[C@H](CC(N)=O)NC(=O)CNC(=O)[C@H](Cc2ccccc2)NC(=O)[C@H](Cc2ccc(O)cc2)NC(=O)[C@H](Cc2c[nH]c3ccccc23)NC(=O)[C@H](CC(N)=O)NC(=O)[C@H](C)NC(=O)[C@@H](NC(=O)[C@H](C)NC(=O)[C@@H](N)CC(=O)O)C(C)C)CSSC[C@@H](C(=O)N[C@@H](CC(=O)O)C(=O)N[C@@H](CCCNC(=N)N)C(=O)N[C@@H](Cc2ccccc2)C(=O)N[C@@H](Cc2ccc(O)cc2)C(=O)N2CCC[C@H]2C(=O)N[C@@H](CC(N)=O)C(=O)N[C@@H](CC(=O)O)C(=O)N[C@@H](CC(C)C)C(=O)N[C@@H](Cc2c[nH]c3ccccc23)C(=O)N[C@H](C(N)=O)C(C)C)NC1=O [msR4M-L2ox]
